Measured values: publication PMC7948503, “Optimization of a peptide ligand for the adhesion GPCR ADGRG2 provides a potent tool to explore receptor biology” (The Journal of Biological Chemistry, 2020)

Target: T1, ADGRG2-ΔGPS-β (Mus musculus, UniProt Q8CJ12)
T1 construct: the entire ECD (including the entire GPS motif) was removed (ADGRG2-ΔGPS-β); expressed in transfected cells; host or cells: HEK293
Assay: GloSensor cAMP assay, HEK293 transfected with ADGRG2-ΔGPS-β
Assay type: cell-based
Text: Wildtype ADGRG2 full-length (ADGRG2-FL) was cloned from mouse total cDNA libraries using the following primers: forward, […]; reverse, […], and then ADGRG2-FL, ADGRG2 C-terminal truncation mutant (ADGRG2-β), and ADGRG2-ΔGPS-β (the entire ECD of ADGRG2 was deleted) were subcloned into the pcDNA3.1 expression vector. The ADGRG2-ΔGPS-β mutants (T610A, Y611A, C614A, S661A, W662A, I663A, L665A, Y666A，N667A, F671A, L679A, L683A, I730A, V731A, F741A, F747A, W757A, I758A, N759A, S760A, V762A, F764A, Y765A, V768A, V769A, F772A, V774A, W824A, F826A, F828A, F829A, V834A, V836A, F838A, M839A, I844A, F845A) were generated using a QuikChange Mutagenesis Kit (Stratagene). All mutations were verified by DNA sequencing.
Human embryonic kidney 293 (HEK293) cells were maintained in Dulbecco’s modified Eagle’s medium supplemented with 10% fetal bovine serum, penicillin (100 IU/ml), and streptomycin (100 μg/ml) as described ([6], [38]). For receptor or other protein expression, plasmids carrying the desired genes were transfected into cells using Lipofectamine 2000 (Invitrogen).
The Glosensor cAMP assay was performed as described ([6], [39], [40]). HEK293 cells were transfected with the GloSensor plasmid and the desired expression plasmids in 24-well dishes. […] The cAMP signal was examined using a luminescence counter (Mithras LB 940).

F3Tyr(Me): p15 mutant, Phe at +3 substituted by unnatural amino acid Tyr(Me) (TS; Tyr(Me) in place of F at position 3)
cAMP accumulation / signal transduction activity compared with wildtype p15 (100 μM peptide, HEK293 ADGRG2-ΔGPS-β, Glosensor, repeated 12 times): higher signal transduction activities | EC50 compared with wildtype p15 or other mutants (concentration-response curves, cAMP Glosensor, ADGRG2-ΔGPS-β): lower EC50 value than wildtype p15
